In one assay the target is T1, KDM5C (Homo sapiens, UniProt P41229).
T1 construct: KDM5C 1-765 Baculovirus; made in house
T1 sequence (P41229 1-765): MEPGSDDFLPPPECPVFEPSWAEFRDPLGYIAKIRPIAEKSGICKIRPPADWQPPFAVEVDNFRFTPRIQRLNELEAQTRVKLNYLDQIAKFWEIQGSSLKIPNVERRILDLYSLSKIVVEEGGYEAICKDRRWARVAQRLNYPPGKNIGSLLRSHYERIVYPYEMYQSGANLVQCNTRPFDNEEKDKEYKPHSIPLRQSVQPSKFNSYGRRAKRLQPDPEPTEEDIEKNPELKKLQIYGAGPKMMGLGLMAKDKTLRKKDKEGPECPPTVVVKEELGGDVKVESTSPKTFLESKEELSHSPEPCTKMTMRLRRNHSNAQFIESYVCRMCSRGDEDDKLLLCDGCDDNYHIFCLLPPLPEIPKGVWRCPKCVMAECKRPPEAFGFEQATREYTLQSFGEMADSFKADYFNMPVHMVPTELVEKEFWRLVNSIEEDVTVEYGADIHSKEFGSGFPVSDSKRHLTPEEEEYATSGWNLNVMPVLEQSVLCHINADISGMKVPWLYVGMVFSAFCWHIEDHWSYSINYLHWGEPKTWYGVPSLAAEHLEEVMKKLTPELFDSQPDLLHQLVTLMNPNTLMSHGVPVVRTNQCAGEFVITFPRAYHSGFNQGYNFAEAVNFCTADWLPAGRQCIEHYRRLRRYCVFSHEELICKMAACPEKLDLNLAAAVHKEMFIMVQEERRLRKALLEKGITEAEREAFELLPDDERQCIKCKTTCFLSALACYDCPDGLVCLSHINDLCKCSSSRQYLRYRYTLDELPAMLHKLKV
The assay is described as follows: AlphaScreen demethylase activity assay, KDM5C. Type of assay: biochemical. Particulars: read-out: IC50 KDM5C. Here is the method:
(§1) IC50 values for KDM2–6 were measured using an AlphaScreen assay as described. The appropriate KDM (5 μl) was pre-incubated with an inhibitor (0.1 μl in DMSO) or DMSO for 15 min before the addition of 5 μl mixture of biotinylated peptide substrates, 2OG, ferrous ammonium sulfate (1–10 μM final) and ascorbate (100 μM final) to initiate the demethylation reaction. The reaction was quenched with 5 μl of 30 mM EDTA at predetermined reaction times for each enzyme (initial rate). Demethylated product was detected by addition of 5 μl of AlphaScreen donor and acceptor beads (AlphaScreen General IgG Detection Kit, 0.02 mg ml^−1 final each) pre-incubated with antibody. The plates were read after 1 h incubation in a BMG Labtech Pherastar FS plate reader. Data were normalized to a no enzyme control and IC50 values were calculated using nonlinear regression curve fits using GraphPad Prism. Assay buffer (50 mM HEPES pH 7.5, BSA (0.1% w/v) and Tween-20 (0.01% v/v)) was used throughout, except for dilution of stock ferrous ammonium sulfate solutions where water was used. The enzyme, substrate and antibody concentrations used are described in Supplementary Table 3. A fluorescence-based LSD1 inhibitor screening assay kit (Cayman, 700120) was used for KDM1/LSD1 assay. Assays for prolyl hydroxylase domain 2 and factor inhibiting HIF using matrix-assisted laser desorption/ionization–time of flight MS were performed as previously described. Prism 5.0 (GraphPad) was used to generate and to fit dose–response curves. IC50 values were determined by plotting percentage inhibition versus compound concentration relative to positive (vehicle) and negative (no enzyme) controls, using normalized dose–response (variable slope) fit. The reported values are the mean of multiple experiments (n≥3). The formaldehyde dehydrogenase coupled KDM assay was used to determine the mode of inhibition, using 0.5 μM His-KDM4A1–359. Prism 5.0 (GraphPad) was used to fit in mix-mode inhibition, to determine the kinetic parameters. Binding constants for CPs and H3(1–15)K9me3 were measured using biolayer interferometry (OctetRed 384, ForteBio) in buffer (50 mM HEPES (pH 7.5), 150 mM NaCl, 10 μM ammonium iron(II) sulphate). His-KDM4A1–359-Bio (70 nM) was immobilized onto super streptavidin biosensor and subjected to different peptide concentrations in buffer. Data analysis was performed using ForteBio Data Aalysis (v6.4).
Construct Expression [E] / nM [2OG] / µM [Fe(II)] / µM Peptide / nM Peptide sequence Antibody Source […]
Supplementary Table 3. AlphaScreen assay parameters for 2OG oxygenases used for this study. The table was dapted from 10. Assays were performed at 2OG concentration near the 2OG Km values determined experimentally.11 All enzymes were expressed and purified as described.10-12
A general note: Bead proximity is the source of the signal in Alpha formats.

By UniProt entry, the sequences of proteins in these tests, tags left out. Where a name states a change or a piece, a line headed by the entry shows the natural chain unless it says otherwise.
UniProt Q9GZT9: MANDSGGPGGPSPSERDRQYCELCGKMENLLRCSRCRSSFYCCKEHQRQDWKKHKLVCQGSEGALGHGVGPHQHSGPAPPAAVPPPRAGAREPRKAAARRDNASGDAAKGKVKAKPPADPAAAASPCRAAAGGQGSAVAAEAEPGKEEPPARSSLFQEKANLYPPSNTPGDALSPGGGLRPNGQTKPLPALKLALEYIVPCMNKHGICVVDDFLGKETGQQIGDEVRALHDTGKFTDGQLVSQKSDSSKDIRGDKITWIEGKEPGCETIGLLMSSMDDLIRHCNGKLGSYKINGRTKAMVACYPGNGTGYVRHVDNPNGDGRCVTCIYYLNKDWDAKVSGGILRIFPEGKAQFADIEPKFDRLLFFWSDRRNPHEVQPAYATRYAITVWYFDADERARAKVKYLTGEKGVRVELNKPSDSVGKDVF

Another assay has as its target T2, KDM2A (Homo sapiens, UniProt Q9Y2K7).
T2 construct: KDM2A 1-517 E.coli; made in house; host or cells: E. coli
T2 sequence (Q9Y2K7 1-517): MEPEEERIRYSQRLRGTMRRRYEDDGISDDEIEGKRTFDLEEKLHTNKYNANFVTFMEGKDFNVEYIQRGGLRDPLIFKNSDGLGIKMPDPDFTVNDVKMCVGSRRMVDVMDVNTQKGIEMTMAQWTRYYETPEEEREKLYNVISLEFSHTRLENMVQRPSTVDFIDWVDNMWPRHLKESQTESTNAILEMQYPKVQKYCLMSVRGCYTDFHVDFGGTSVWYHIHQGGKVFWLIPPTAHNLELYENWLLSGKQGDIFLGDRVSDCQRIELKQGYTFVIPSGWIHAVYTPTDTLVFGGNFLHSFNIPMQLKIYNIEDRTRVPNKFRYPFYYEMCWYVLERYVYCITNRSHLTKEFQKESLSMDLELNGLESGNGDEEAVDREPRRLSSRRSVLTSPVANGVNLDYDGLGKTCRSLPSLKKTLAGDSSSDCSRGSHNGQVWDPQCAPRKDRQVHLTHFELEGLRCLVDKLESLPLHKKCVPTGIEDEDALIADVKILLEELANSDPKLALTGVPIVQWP
The assay is described as follows: AlphaScreen demethylase activity assay, KDM2A. The assay is classed as biochemical. Conditions: read-out: IC50 KDM2A. On the procedure: as §1, with “The reported values are the mean of multiple experiments (n≥3). The formaldehyde dehydrogenase coupled KDM assay was used to determine the mode of inhibition, using 0.5 μM His-KDM4A1–359. Prism 5.0 (GraphPad) was used to fit in mix-mode inhibition, to determine the kinetic parameters.” left out, “His-KDM4A1–359-Bio (70 nM) was immobilized onto super streptavidin biosensor and subjected to different peptide concentrations in buffer. Data analysis was performed using ForteBio Data Aalysis (v6.4).” left out
Supplementary Table 3. […] Assays were performed at 2OG concentration near the 2OG Km values determined experimentally.11 All enzymes were expressed and purified as described.10-12

Another assay deals with PHD2 (Homo sapiens, UniProt Q9GZT9). The assay is described as follows: MALDI-TOF MS assay, PHD2. Type of assay: biochemical. Conditions: read-out: IC50 PHD2. Here is the method:
as §1, with “Prism 5.0 (GraphPad) was used to fit in mix-mode inhibition, to determine the kinetic parameters.” left out, “His-KDM4A1–359-Bio (70 nM) was immobilized onto super streptavidin biosensor and subjected to different peptide concentrations in buffer. Data analysis was performed using ForteBio Data Aalysis (v6.4).” left out

The target in the next assay is T3, His-KDM4A1-359-Bio (Homo sapiens, UniProt O75164).
T3 construct: KDM4A protein (residues 1-359) was cloned into the pNIC-Bio3 plasmid, which incorporates a C-terminal AviTag; made in house; host or cells: E. coli BL21(DE3)Rosetta co-transfected with pCDF-BirA
T3 sequence (O75164 1-359): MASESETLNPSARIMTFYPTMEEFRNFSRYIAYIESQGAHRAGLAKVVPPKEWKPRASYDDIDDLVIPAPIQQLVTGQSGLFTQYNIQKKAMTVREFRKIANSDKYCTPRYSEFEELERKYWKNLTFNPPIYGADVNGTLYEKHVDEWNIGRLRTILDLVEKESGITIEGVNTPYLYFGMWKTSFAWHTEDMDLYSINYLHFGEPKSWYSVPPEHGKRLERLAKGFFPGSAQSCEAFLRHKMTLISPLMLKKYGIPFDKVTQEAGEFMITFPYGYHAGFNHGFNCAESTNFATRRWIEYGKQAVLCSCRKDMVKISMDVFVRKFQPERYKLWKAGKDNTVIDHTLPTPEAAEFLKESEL
Put plainly: Biolayer interferometry binding to KDM4A. A general note: Biolayer interferometry detects binding as a change in optical thickness at a sensor tip.

By IC50 is commonly meant the concentration that inhibits the measured activity by half. As to DYVYNTRSDAWRWYT(meC) [CP2.1], at KDM5C, the IC50 was 16.5 µM.
For the substance DYVYNTRSGWRWYTC [CP2], the IC50 at KDM2A is above 10 µM; at KDM5C, above 10 µM; on PHD2, above 1000 µM.
A word on the Kd: it is the equilibrium constant for the complex coming apart. Low values mean a tighter complex, high ones a looser complex. On to LYLKSRRSGLTWIPC [CP4], for which the IC50 on KDM2A is above 10 µM; at KDM5C, above 10 µM; on PHD2, above 1000 µM. At His-KDM4A1-359-Bio, this substance yielded a Kd of 0.036 µM.
In the case of LYSKYTQSGVRWVC [CP5], the IC50 is above 10 µM at KDM2A, above 10 µM on KDM5C and above 1000 µM on PHD2. On His-KDM4A1-359-Bio, this substance displayed a Kd of 0.173 µM.

The values above are taken from article PMC5384220, “Highly selective inhibition of histone demethylases by de novo macrocyclic peptides” (Nature Communications, 2017).
